## Membrane permeability of cyclic peptides

Values of Price et al. 2017, doi:10.1039/c7ob00096k, as listed in CycPeptMPDB.

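Conditions beyond the assay type are not listed; see the original paper. The list need not hold all peptides of the study. Entries at the database's floor value (log10 P of -10) are not listed.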

RRCK values come from monolayers of low-efflux MDCK cells.
EPSA reports exposed polarity as measured by chromatography; lower is less polar.
Values are log10 P with P in cm/s, so -5 is more permeable than -7.

structure (SMILES)	RRCK (log10 cm/s)	EPSA (Å2)
CC[C@@H]1NC(=O)[C@H](C(C)C)N(C)C(=O)[C@H](CC(C)C)N(C)C(=O)[C@H](CC(C)C)N(C)C(=O)[C@@H](C)NC(=O)[C@H](C)NC(=O)[C@H](CC(C)C)N(C)C(=O)[C@H](C(C)C)NC(=O)[C@H](CC(C)C)N(C)C(=O)CN(C)C1=O	-5.27	61